Reference: PMC8088467, “Tetrahedral DNA nanostructure improves transport efficiency and anti‐fungal effect of histatin 5 against Candida albicans” (Cell Proliferation, 2021)

Experiment: Serum stability test (MALDI‐TOF MS degradation profile of His‐5)
Assay type: in vitro ADME
Details: 10% foetal calf serum medium, peak area m/z 2900‐3000 / total area, His‐5:TDN ratio not given
Procedure: To verify stability of TDN/[…] complex in the serum medium, matrix-assisted laser desorption ionization time of flight mass spectrometry (MALDI-TOF MS) was utilized to assess the degradation profile of […]. […] and TDN/[…] incubated in the 10% foetal calf serum medium for 6h were measured by MALDI-TOF MS. And the proportions of peak areas (mass range from 2900 to 3000) to the total area in spectrum were calculated as the proportions of […] in the medium. The mass percentage of […] was calculated with following equation: […]5%=[…]×100% Initial […] and TDN/[…] in the 10% foetal calf serum medium were measured as control groups. And the proportions were compared between the TDN/[…] groups and […] groups.

Substance: Histatin 5
- Mass percentage of Histatin 5 [2900,3000], after degradation (incubated 6h): 9.14%
- Mass percentage of Histatin 5 [2900,3000], initial (initial sample (control, before incubation)): 35.19%
